The subject of one data set is Rtkn-GFP. In words: ToxTracker genotoxicity assay, Rtkn-GFP reporter induction.
The subject of the next data set is Bscl2-GFP. The data set is described as follows: ToxTracker genotoxicity assay, Bscl2-GFP reporter induction.
Setting [1] is: with S9 rat liver extract, 3 h exposure and 24 h recovery, at 50% cytotoxicity.
The mark [2] stands for this setting: without S9 rat liver extract, 24 h exposure, at 10% cytotoxicity.
Setting [3] is: without S9 rat liver extract, 24 h exposure, at 50% cytotoxicity.

For the molecule `C=CC(C)(CN1CC1C)OC(=O)NCCCCCC/N=c1\oc(=O)n(CCCCCCNC(=O)OC(C)(C=C)CN2CC2C)c(=O)n1CCCCCCNC(=O)OC(C)(C=C)CN1CC1C` (centres unmarked) [Ex. 5], the Rtkn induction level with Rtkn-GFP (with S9 rat liver extract, 3 h exposure and 24 h recovery, at 10% cytotoxicity) turned out to be 1.1 fold; with Rtkn-GFP (setting [1]) it was 1.4 fold; in the data set on Rtkn-GFP (setting [2]), 1.0 fold; with Rtkn-GFP (without S9 rat liver extract, 24 h exposure, at 25% cytotoxicity), 1.0 fold; in the data set with Rtkn-GFP (setting [3]), 1.1 fold. Further, the “Bscl 2 induction level” value in the data set with Bscl2-GFP (setting [1]) was found to be 1.7 fold; in the data set on Bscl2-GFP (setting [2]) it was 1.3 fold; in the data set with Bscl2-GFP (setting [3]) it was 1.7 fold.
